Measured values: patent publication US20250009694A1, “METHODS AND PHARMACEUTICAL COMPOSITIONS FOR REPAIRING INTESTINAL MUCOSAL” (INSTITUT NATIONAL DE LA SANTÉ ET DE LA RECHERCHE MÉDICALE, priority 2021, published 2025)

What was measured:
DSS-colitis in WT mice = experiment: DSS-induced acute colitis in WT C57BL/6 mice after pre-treatment; details: mouse, in vivo
[1] = test system: colon organoids from WT mice

For `CC(C)(CO)[C@@H](O)C(=O)NCCC(=O)NCCSSCCNC(=O)CCNC(=O)[C@H](O)C(C)(C)CO` [pantethine], the “tolerance to DSS-colitis” value (DSS-colitis in WT mice) was “enhanced tolerance to DSS-colitis”, the protection against colitis (DSS-colitis in WT mice; po) was “same protective result” and the “cell death following TNF exposure (% zombie red positive cells)” value [1] was “significantly reduced the mortality rate”. For the same compound, the “expression of epithelial genes Muc2 and antimicrobial peptide Ang4” value [1] was “further enhanced”, the “Muc2 and Ang4 expression” value (VIVA colon organoids) was “stimulating effect” and the “cell death following TNF exposure (% zombie red positive cells)” value (VIVA colon organoids) was “almost completely abolished”.
